High-throughput results: PubChem BioAssay, several laboratories
In the library only some 4.2% were active in any assay of this set; here they are far more common.
ALR H2O2 inh – inhibitors of human ALR sulfhydryl oxidase, primary screen, biochemical, H2O2 detection, HRP-luminol luminescence, single point. inhibition, % (concentration not given with the values). 290,000 compounds, 3.8% hits. purified ALR, DTT oxidation. AID 485317, 2010;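 active means mean and each replicate at 75% or more; inconclusive means only one of the two met; inactive means neither met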;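 further: stock transfer was 7.5 nL into about 7.5 µL; 0% = neutral wells and 100% = wells with inactivated enzyme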
HDAC3 inhib – HDAC3 deacetylase inhibitors, primary screen, biochemical, fluorescence, cell-free homogeneous | Histone deacetylase 3 (Homo sapiens), O15379 | recombinant HDAC3, fluorogenic peptide/trypsin coupled | inhibition, % at 8.3 µM | actives 0.15% (n = 320,000); in the data active = inhibition above about 26%, passing the limit was not always enough; inconclusive = no clear call, values can overlap the other calls
UUG fidelity – alters start codon recognition fidelity in yeast | S. cerevisiae UUG-firefly luciferase reporter, luminescence/redox ratio | activity score, % at 18.7 µM | hit rate 0.13% among 350,000 | AID 602363;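 active means replicate mean at a twofold rise or more, about +100% in these data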;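 further: firefly luciferase made from a UUG start codon reports start codon fidelity; reporter light over untreated wells divided by growth signal over untreated wells; some hits fall short of that in this replicate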
MC4R ag barr – MC4R agonists recruiting beta-arrestin, primary screen, cell-based, luminescence, agonist arm of biased-ligand search | AID 540308, 2011 | actives 0.98% (n = 360,000) | U2OS MC4R beta-arrestin complementation; percent of melanotan II response, DMSO zero | activation, % at 8.9 µM | Melanocortin receptor 4 (Homo sapiens), P32245;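 active = activation above a per-plate cutoff, the mean activation of sample wells on that plate plus 3 SD, cut at about 8% in these data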
NALP1 inh – NALP1 inflammasome inhibitors in reconstituted yeast, colorimetric, S. cerevisiae, triplicate retest; S. cerevisiae NALP1/ASC/caspase-1 growth, X-gal OD620, 72 h; inhibition, % at 10 µM; actives 0.61% (n = 280,000); in the data active = inhibition mostly above about 24%, no sharp cut-off; inactive = mostly below about 32%
MC4R antag cAMP – MC4R antagonists of cAMP signaling, primary screen, cell-based, TR-FRET, antagonist arm of biased-ligand search | MC4R-expressing cells, MTII-stimulated cAMP, LANCE TR-FRET | inhibition, % at 6.5 µM | actives 0.48% (n = 360,000);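 active = inhibition above its plate's cutoff, the mean of tested wells on that plate plus 3 SD, cut at about 29% in these data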;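 also: 0% = Melanotan II alone and 100% = Melanotan II plus saturating MCL0020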
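Assay system: human MC4R-expressing U2OS cells; reagent: Melanotan II stimulation of cells; dosing: 6.5 µM single dose; timing: compound 30 min, challenge 1 h, detection 1 h; signal: TR-FRET cAMP assay; replicates: one well per compound, no replicates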
The depositor's hits bear a star; ? = inconclusive; · = no result; ! = a repeat was not active.

The chains behind the UniProt entries cited, without tags or fusion partners.
Melanocortin receptor 4 (Homo sapiens), P32245, UniProt P32245, whole entry, looked up: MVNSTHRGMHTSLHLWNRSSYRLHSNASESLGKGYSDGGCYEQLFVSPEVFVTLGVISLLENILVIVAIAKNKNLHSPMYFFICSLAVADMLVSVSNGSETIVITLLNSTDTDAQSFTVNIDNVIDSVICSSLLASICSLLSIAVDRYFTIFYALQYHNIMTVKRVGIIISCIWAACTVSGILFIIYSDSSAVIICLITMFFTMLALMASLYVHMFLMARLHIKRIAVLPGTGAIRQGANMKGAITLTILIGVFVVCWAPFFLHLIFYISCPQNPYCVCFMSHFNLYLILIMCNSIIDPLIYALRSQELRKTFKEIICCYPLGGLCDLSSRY

Screens by letter: A = ALR H2O2 inh; B = HDAC3 inhib; C = UUG fidelity; D = MC4R ag barr; E = NALP1 inh; F = MC4R antag cAMP
1. O=C(C(=O)N1CCN(c2cccc(Cl)c2)CC1)c1c[nH]c2ccccc12
  A = -4.4 | B = -2.3 | C = -13.2 | D = 8.5* | E = 1.6 | F = 1.1
2. CNC(=O)C[C@@H]1CC[C@H]2[C@H](COc3ccc(NC(=O)C(C)C)cc3C(=O)N2C)O1
  A = · | B = · | C = 1.5 | D = · | E = · | F = ·
3. CN(C)C(=O)C[C@H]1C=C[C@H](NC(=O)NC2CCCCC2)[C@@H](CO)O1
  A = · | B = · | C = -10.9 | D = · | E = · | F = ·
4. O=C(Cn1ncc2c1-c1ccccc1OC2)Nc1cccc(Cl)c1
  A = -37.4 | B = 6.1 | C = -7.3 | D = 4.2 | E = 38.5* | F = -0.2
5. O=C(Cn1ncc2c1-c1ccccc1OC2)Nc1ccc(Cl)cn1
  A = -2.8 | B = · | C = -8.1 | D = -1.0 | E = 26.0 | F = 19.3
6. Cc1nnc(SCC(=O)Nc2ccc(C(N)=O)cc2)n1-c1ccccc1
  A = -10.7 | B = -0.8 | C = -18.9 | D = 1.0 | E = 3.6 | F = -3.8
7. NC(=O)c1ccc(NC(=O)CSC(=O)c2ccccc2)cc1
  A = 98.5* | B = -11.1 | C = -13.5 | D = -3.9 | E = · | F = 15.8
8. CC(C)N(c1ccccc1)c1ccc(NC(=S)NCCN(C)C)cc1
  A = 98.9* | B = 3.1 | C = · | D = -2.0 | E = 3.5 | F = -1.2
9. CN(C)CCCNC(=S)Nc1ccc(Oc2ccccc2)cc1
  A = 92.9* | B = -1.8 | C = · | D = -1.7 | E = 10.5 | F = 6.7
10. CCNC(=S)Nc1ccc(N(c2ccccc2)C(C)C)cc1
  A = 32.4 | B = -1.2 | C = · | D = 0.6 | E = 0.2 | F = -6.2
11. CCCOC(=O)c1ccc(NC(=O)/C=C/c2cccs2)cc1
  A = 1.1 | B = 12.1 | C = -1.3 | D = -0.3 | E = 61.0* | F = 5.2
12. COc1ccccc1CN1C(=O)c2ccccc2C1C(=O)NC1CCC(C)CC1 (stereo not given)
  A = 82.0* | B = -22.8 | C = · | D = -1.6 | E = 1.4 | F = 14.2
13. CNC[C@H]1Oc2cc(C#Cc3ccccn3)ccc2S(=O)(=O)N([C@@H](C)CO)C[C@@H]1C
  A = · | B = · | C = 5.3 | D = · | E = · | F = ·
14. CC(=O)NNc1nc(-c2ccc(C)cc2)cs1
  A = 83.1* | B = 1.7 | C = · | D = -0.9 | E = -42.7 | F = 6.6
15. CC(=O)Nc1ccc(-c2csc(N/N=C\c3ccncc3)n2)cc1
  A = 98.8* | B = 0.0 | C = -12.2 | D = -2.7 | E = · | F = -5.8
16. CCCC(=O)Nc1ccc(-c2csc(NNC(C)=O)n2)cc1
  A = 98.6* | B = 6.5 | C = · | D = 1.8 | E = · | F = 0.1
17. Oc1ccc(Nc2nc(-c3ccc(O)cc3)cs2)cc1
  A = 100.0* | B = 4.6 | C = · | D = -1.6 | E = -23.5 | F = 6.4
18. NS(=O)(=O)c1ccc(Nc2nc(-c3ccc(O)cc3)cs2)cc1
  A = ? | B = 2.8 | C = -7.6 | D = -0.1 | E = 0.8 | F = -8.1
19. COC(=O)c1ccc(/C=N/Nc2nc(-c3ccc(C)cc3)cs2)cc1
  A = · | B = 2.0 | C = -10.7 | D = -1.7 | E = 23.0 | F = -3.3
20. CC(=O)NNc1nc(-c2ccccc2)cs1
  A = 11.2 | B = 4.2 | C = · | D = -0.8 | E = 7.6 | F = -0.9
21. CCS(=O)(=O)Nc1ccc2c(c1)C(=O)N(C)[C@H]1CC[C@H](CC(=O)Nc3ccc(Cl)cc3)O[C@@H]1CO2
  A = · | B = · | C = 13.5 | D = · | E = · | F = ·
22. Cc1noc(C)c1NC(=O)N(C)C[C@@H]1OCCCC[C@H](C)Oc2ccc(NC(=O)NC(C)C)cc2C(=O)N([C@@H](C)CO)C[C@@H]1C
  A = · | B = · | C = -3.4 | D = · | E = · | F = ·
23. C[C@@H]1CN([C@@H](C)CO)C(=O)Cc2cc(NC(=O)NC3CCCCC3)ccc2O[C@@H]1CN(C)S(=O)(=O)c1cn(C)cn1
  A = · | B = · | C = -4.2 | D = · | E = · | F = ·
24. COCC(C)NC(=O)c1cc(-c2ccc(O)cc2)on1 (stereo not given)
  A = 99.2* | B = · | C = -9.2 | D = 0.7 | E = -4.6 | F = -0.2
25. COc1cc(Cc2ccc(N)c(OC)c2)ccc1N
  A = 98.3* | B = 2.3 | C = · | D = 0.8 | E = 32.1 | F = 12.2

Screens by letter: A = ALR H2O2 inh; B = HDAC3 inhib; C = UUG fidelity; D = MC4R ag barr; E = NALP1 inh; F = MC4R antag cAMP
26. COc1ccc(Cc2ccc(OC)c(N)c2)cc1N
  A = ? | B = 0.4 | C = 11.2 | D = 0.7 | E = 46.2 | F = 11.3
27. C[C@H](CO)N1C[C@H](C)[C@@H](CN(C)C(=O)Nc2ccc(F)cc2)OCCCC[C@H](C)Oc2ccc(NC(=O)Nc3ccc(F)cc3)cc2C1=O
  A = · | B = · | C = -2.2 | D = · | E = · | F = ·
28. COc1cc(OC)c(C2=NOC(C(=O)N3CCCc4ccccc43)C2)cc1Cl (stereo not given)
  A = -2.8 | B = -5.6 | C = -10.3 | D = -2.1 | E = 37.2* | F = 5.6
29. CCC1CCCCN1C(=O)C1CC(c2cc(Cl)c(OC)cc2OC)=NO1 (stereo not given)
  A = -4.9 | B = 2.9 | C = -0.4 | D = 0.5 | E = 0.8 | F = 17.4
30. COc1cccc(OCC(O)CN2CCN(c3ccc(F)cc3)CC2)c1 (stereo not given)
  A = 43.5 | B = -1.3 | C = -10.6 | D = -0.1 | E = -0.5 | F = -3.3
31. OC(COC1CCCCC1)CN1CCN(c2ccccc2)CC1 (stereo not given)
  A = 91.6* | B = -1.5 | C = -7.6 | D = -1.1 | E = · | F = 6.2
32. O=C(c1ccccc1)c1ccc(OCCOCCN2CCN(Cc3ccccc3)CC2)cc1
  A = -14.6 | B = 7.0 | C = · | D = 3.7 | E = 38.0* | F = -5.8
33. OC(COc1ccc2ccccc2c1)CN1CCN(c2ccc(F)cc2)CC1 (stereo not given)
  A = -127.6 | B = 0.0 | C = -8.7 | D = 1.9 | E = 44.1* | F = 0.5
34. CCCN1CCC(=O)N(CCSc2ccccc2)CC1
  A = -3.2 | B = -6.5 | C = -22.7 | D = -1.3 | E = -1.6 | F = -2.2
35. c1ccc(SCCN2CCN(c3ccccc3)CC2)cc1
  A = 98.4* | B = 5.8 | C = -15.4 | D = 2.3 | E = 16.0 | F = -4.4
36. CC(C)(C)C1CCC(OCC(O)CN2CCN(Cc3ccccc3)CC2)CC1 (stereo not given)
  A = -45.9 | B = 3.3 | C = · | D = 3.0 | E = 13.6 | F = -1.6
37. CCC(=O)Nc1ccc2c(c1)C(=O)N(C)[C@@H]1CC[C@@H](CC(=O)NCc3ccccc3)O[C@@H]1CO2
  A = · | B = · | C = -20.1 | D = · | E = · | F = ·
38. C[C@@H]1CCCCO[C@@H](CN(C)C(=O)CCCN(C)C)[C@H](C)CN([C@@H](C)CO)C(=O)c2cc(NC(=O)Nc3ccc(F)cc3)ccc2O1
  A = · | B = · | C = 10.7 | D = · | E = · | F = ·
39. CC(C)CNC(=O)[C@@]1(c2ccc([N+](=O)[O-])cc2)CC(=O)N(CC23CC4CC(CC(C4)C2)C3)[C@@H]1c1ccc(CO)cc1
  A = · | B = · | C = 1.8 | D = · | E = · | F = ·
40. CC(C)c1ccc(OCC(O)CN2CCN(c3ccccc3)CC2)cc1 (stereo not given)
  A = 5.5 | B = 4.9 | C = -14.2 | D = 8.9*! | E = 23.6 | F = -4.2
41. O=C(c1ccccc1)c1ccc(OCC(O)CN2CCN(Cc3ccccc3)CC2)cc1 (stereo not given)
  A = -4.2 | B = 0.5 | C = -12.8 | D = -0.4 | E = 28.6 | F = -4.5
42. CC(CN1CCN(c2ccccc2)CC1)c1ccccc1 (stereo not given)
  A = 97.5* | B = 2.5 | C = -14.2 | D = 0.1 | E = 24.7 | F = 4.1
43. Clc1ccccc1N1CCN(Cc2ccc(Br)o2)CC1
  A = -0.5 | B = -0.8 | C = · | D = -1.2 | E = · | F = -2.6
44. Brc1ccc(CN2CCN(c3ccccc3)CC2)o1
  A = 97.4* | B = 0.4 | C = -7.7 | D = 0.9 | E = 15.3 | F = 3.0
45. CC(=O)c1ccc(OCC(O)CN2CCN(Cc3ccccc3)CC2)cc1 (stereo not given)
  A = -65.7 | B = 5.3 | C = -16.5 | D = 0.1 | E = 40.8* | F = 2.0
46. COc1ccc(OCC(O)CN2CCN(c3ccccc3)CC2)cc1 (stereo not given)
  A = 32.7 | B = 6.1 | C = -8.3 | D = -1.8 | E = 18.1 | F = 15.1

Full records as entered above.
Listed for CC(CN1CCN(c2ccccc2)CC1)c1ccccc1 (stereo not given) : ALR H2O2 inh: 97.5*; HDAC3 inhib: 2.5; UUG fidelity: -14.2; MC4R ag barr: 0.1; NALP1 inh: 24.7; MC4R antag cAMP: 4.1
Listed for CCCN1CCC(=O)N(CCSc2ccccc2)CC1 : ALR H2O2 inh: -3.2; HDAC3 inhib: -6.5; UUG fidelity: -22.7; MC4R ag barr: -1.3; NALP1 inh: -1.6; MC4R antag cAMP: -2.2
